Data on two molecules can be found in patent publication US4242354A, “2-(2-Thenolythio)-propionylglycine: method for its preparation and pharmaceutical formulations containing said compound” (Mediolanum Farmaceutici S.r.L., priority 1978, dated 1980).

What is called mortality is the share of the test organisms that died. The low end stands for a weak lethal effect, the high end for a strong lethal effect. The LD50 is the dose expected to kill half of the subjects tested.

The test system of series [1] is mouse.
Series [2] in a line: in vivo. The following applies: mouse, po.
Series [3] deals with mouse. The following applies: in vivo, po.
Series [4] deals with SO2-induced experimental bronchitis. Nature of the series: Experimental bronchitis in the rat (SO2 inhalation). The following applies: 50 mg/kg, control 4.00 ± 0.26. Type of series: in vivo, male rats, Sprague-Dawley strain. The procedure: The mucolytic activity of (I) was assessed in the rat subjected to a bronchopulmonary impairment induced by a SO2 inhalation.
For the purpose 40 male rats, Sprague-Dawley strain, 320-370 grams, subdivided into 4 groups each consisting of 10 elements were subjected to the following treatments:
Group 1: poisoning treatment (SO2)
Group 2: poisoning with SO2, and aerosol treatment with (I).
Group 3: poisoning with SO2, and aerosol treatment with (I).
Group 4: poisoning with SO2, and subcutaneous treatment with (I).
In any case the dose of (I) was 50 mg/kg.
For the poisoning-induction the animals were subjected to a constant air flow containing SO2 at a 0.03 percent concentration. The poisoning treatment was given for 15 days subjecting the rats, 2 hours daily, to an inhalation of SO2 for 15-minute periods. Concurrently the protective treatment with (I) was carried out in the groups in which it had been scheduled. The animals were killed on the day following the last inhalation.
The lungs were withdrawn together with the trachea, fixed in 10 percent formalin, and subjected to a macroscopic examination, dipped thereafter into the same fixing fluid for 24 hours, and thereafter for one hour in absolute ethanol.
The bronchial tree was thereafter evidenced with alcian blue; moreover, a subsequent staining was made with the Schiff's reagent in order to evidence the muchopolysaccharides. […]

For the next series, the system named is rat. Nature of the series: in vivo. How it is done: (§1) Hundred-and-forty (140) albino rats, Sprague-Dawley strain, bodyweight 120-135 grams, subdivided into groups each consisting of 5 animals, were used for the investigation. […] For each single compound the LD 50 was assessed according to Litchfield and Wilcoxon on the basis of the mortality rate encountered in the 7 days following the treatment.

Series [5] is described as follows: in vivo. The following applies: rat. The procedure: as §1
The nature of series [6]: in vivo. The following applies: mouse, iv.

Like-named read-outs stand apart in the source and are kept apart here.

Consider `CC(SC(=O)c1cccs1)C(=O)NCC(=O)O` (stereo not shown) [compound (I), 2-(2-thenoylthio)-propionylglycine], for which the “No. Animals Dead” value in the series with mouse [1] (in vivo, iv, 500 mg/kg) amounted to 0; in the series on mouse [1] (in vivo, iv, 750 mg/kg) it was 0; with mouse [1] (in vivo, iv, 1000 mg/kg), 0; in the series with mouse [3] (1500 mg/kg), 0; in the series with mouse [3] (2000 mg/kg) it was 0; in the series with rat (in vivo, 1250 mg/kg) it was 0. Besides, the “No. Animals Dead” value in the series with rat (in vivo, 1750 mg/kg) was 4; with rat (in vivo, 2000 mg/kg), 10; in the series with rat (po, 1500 mg/kg) it was 0; in the series with rat (po, 2000 mg/kg), 0. Moreover, the mortality in “in vivo [2]” (1500 mg/kg), in the series “in vivo [2]” (2000 mg/kg), in “in vivo [2]” (2500 mg/kg), in “in vivo [6]” (500 mg/kg), in the series “in vivo [6]” (750 mg/kg) and in the series “in vivo [6]” (1000 mg/kg) was 0% in each case. In addition, the mortality in the series “in vivo [6]” (1250 mg/kg) is 0%. Besides, the “Macroscopic Examination score (E, mean ± standard error)” value came out at 1.25 ± 0.31 in series [4] (group 2, aerosol) and 1.25 ± 0.36 in series [4] (group 4, subcutaneous). In the series “in vivo [5]” (in vivo, im), this molecule showed a 50% lethal dose (LD50) at 168 h of 1800 mg/kg. In addition, the mortality at 168 h in the series “in vivo [5]” (in vivo, im, 1250 mg/kg) was determined as 0%; in the series “in vivo [5]” (in vivo, im, 1500 mg/kg), 0%; in the series “in vivo [5]” (in vivo, im, 1750 mg/kg) it was 40%; in “in vivo [5]” (in vivo, im, 2000 mg/kg) it was 100%; in the series “in vivo [5]” (po, 1500 mg/kg), 0%; in the series “in vivo [5]” (po, 2000 mg/kg), 0%. In “in vivo [5]” (po, 2500 mg/kg), the mortality at 168 h turned out to be 0%.
In the case of `CC(S)C(=O)NCC(=O)O` (stereo not shown) [compound (II), 2-mercaptopropionylglycine, reference compound], the “No. Animals Dead” value came out at 3 in the series with mouse [1] (intravenous, 1250 mg/kg (highest dose), 10 animals per dose) and 0 with rat (intramuscular, 1250 mg/kg, 10 animals per dose). For the same molecule, the mortality at 168 h in “in vivo [5]” (in vivo, im, 1250 mg/kg) came to 0%. This molecule also registered a mortality in the series “in vivo [6]” (1250 mg/kg) of 30%.
